These are literature values, as cited in publication PMC3124785 (ACS chemical neuroscience, 2011).

The data set addresses eNOS. Particulars: read-out: Ki eNOS; cited from earlier work.

As for `N=C(NCCC[C@H](N)C(=O)O)N[N+](=O)[O-]` [N^G-nitro-L-arginine], the Ki (usually a dissociation constant, usually derived from enzyme kinetics or from competition with a known ligand) is 40 to 200 nM.
